Inhibition data for 1 molecule are collected here from PubChem BioAssay AID1308 (The Scripps Research Institute Molecular Screening Center, 2008).

SMILES strings stand for the structures. Only a part is listed here, and it is no random draw. Activity calls are given as the source filed them.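 How the source made its calls: active means inhibition above the mean of solvent-only control wells plus 3 SD, cutoff set per campaign (cut at about 13% in these data); inactive means the rest.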

This assay is described as follows: inhibition of TNF-alpha-driven NF-kB transcription – cell-based, HEK293T, luciferase, TNF-alpha stimulus, counter-screen for STAT3 inhibitor project, confirmation (AID 1308).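 Further: 0% = TNF-alpha with DMSO and 100% = TNF-alpha with MG high control.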 The following applies: HEK293T NF-kB luciferase reporter, TNF-alpha induced; at 5.7 µM; active compounds read high.
On to `O=c1c2cc([N+](=O)[O-])ccc2[nH]c2c([N+](=O)[O-])cc([N+](=O)[O-])cc12`, for which the inhibition was active: 15.9%.

What is called inhibition is the relative decrease from the control value, in per cent.
